Our source for the Ki values is BindingDB's records for doi:10.1021/jm980001q (G.D. Searle And, 1998).

For the test, the target named is T1, Glycylpeptide N-tetradecanoyltransferase (Candida albicans (strain SC5314 / ATCC MYA-2876), UniProt P30418).
T1 sequence (P30418 whole entry): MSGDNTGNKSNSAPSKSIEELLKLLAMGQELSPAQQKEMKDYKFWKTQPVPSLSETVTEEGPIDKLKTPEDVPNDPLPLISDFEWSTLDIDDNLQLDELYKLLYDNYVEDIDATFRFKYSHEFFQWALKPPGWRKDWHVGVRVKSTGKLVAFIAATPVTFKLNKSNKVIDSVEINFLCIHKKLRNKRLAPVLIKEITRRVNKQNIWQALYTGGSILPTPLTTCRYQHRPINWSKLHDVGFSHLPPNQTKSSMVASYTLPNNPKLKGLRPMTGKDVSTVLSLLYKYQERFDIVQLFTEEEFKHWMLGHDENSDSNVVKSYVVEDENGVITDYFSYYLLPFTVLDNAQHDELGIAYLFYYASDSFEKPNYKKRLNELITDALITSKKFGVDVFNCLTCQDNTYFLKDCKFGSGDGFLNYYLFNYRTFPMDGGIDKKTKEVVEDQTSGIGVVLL
Description: The Compound was tested for the inhibition potency against Candida albicans N-myristoyltransferase (NMT) and reported as apparent Ki.

Each structure is given as a SMILES string.

Consider `Cc1nccn1CCCCc1ccc(CC(=O)N[C@@H](CO)C(=O)N[C@@H](CCCCN)C(=O)NCCC2CCCCC2)cc1` [(S)-6-Amino-2-[(S)-3-hydroxy-2-(2-{4-[4-(2-methyl-imidazol-1-yl)-butyl]-phenyl}-acetylamino)-propionylamino]-hexanoic acid (2-cyclohexyl-ethyl)-amide], for which the Ki was 0.031 µM.
